This is an account of results in patent publication US20260217701A1, “SELECTIVE BET INHIBITORS AND USES THEREOF” (Tay Therapeutics Limited, priority 2022, published 2026).

The assay deals with collagen-induced arthritis. Put plainly: Collagen-induced arthritis (CIA) model: clinical scores and paw volume. It counts as in vivo, Lewis rats. The settings on record: Day 18; R paw; Group 3 (CIA + Dexamethasone); individual animals.

Turning to `C[C@@H]1C[C@H]2[C@@H]3CCC4=CC(=O)C=C[C@]4(C)[C@@]3(F)[C@@H](O)C[C@]2(C)[C@@]1(O)C(=O)CO` [Dexamethasone, dexamethasone], the Animal paw volume is given as 1.17 mL.
